# Antibody variant affinities, Ab-14 light chain, assay B

Binding partner: SARS-CoV-2 spike HR2 peptide, sequence PDVDLGDISGINAS.

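These sequences belong to a second round, designed from the earlier measurements on random variants of the parent. Their group label is 14L_Ctrl (Ctrl: baseline library sampled from a position-specific scoring matrix, with some repeated check sequences). Affinity was read by AlphaSeq, a pooled yeast mating assay with surface-displayed partners. After mating in shaken culture at 30 °C for 16 h, diploids were selected and their barcode pairs sequenced. Read counts were normalised to the haploid input and turned into Kd by a linear fit to BCL2-family pairs of known affinity, for each replicate. Mating was done six times.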

Each scFv is VH, a (GGGGS)3 linker, VL, as in the parent Ab-14, and differs from it in the CDRs of the light chain only.
VH: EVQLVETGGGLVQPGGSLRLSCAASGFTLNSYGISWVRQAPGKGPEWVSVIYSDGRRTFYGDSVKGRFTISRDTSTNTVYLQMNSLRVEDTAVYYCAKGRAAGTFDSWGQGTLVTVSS
VL: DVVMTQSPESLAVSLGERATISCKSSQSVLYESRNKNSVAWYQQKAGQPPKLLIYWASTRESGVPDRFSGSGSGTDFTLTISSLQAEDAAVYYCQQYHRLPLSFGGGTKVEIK

The parent's light chain CDRs are KSSQSVLYESRNKNSVA, WASTRES, QQYHRLPLS; each variant's own CDRs replace them letter for letter.
Numbers give log10(Kd / nM), so 0 is 1 nM and 3 is 1 µM. Smaller is tighter.
Where no diploid with the target was found in that replicate, the entry reads "nd": below detection, most likely a poor binder, though not proof of it.
Values of this round are not directly comparable with the first-round values of the same sequences.

{"CDR-L1": "KSSESVLYEFRNKNVVA", "CDR-L2": "WASTRES", "CDR-L3": "QQYHRLPLS", "log10 Kd, replicates": "nd nd nd nd nd nd", "signal with controls": "0 of 18"}
{"CDR-L1": "KISQSVGYESRNKNGVA", "CDR-L2": "QASTRES", "CDR-L3": "QQYHRLPLS", "log10 Kd, replicates": "0.89 0.87 0.26 0.30 0.89 0.71", "signal with controls": "1 of 18 (2.10)"}
{"CDR-L1": "KSKQSELYESRNKNSVA", "CDR-L2": "WASTRES", "CDR-L3": "QQYHRLPLS", "log10 Kd, replicates": "1.34 1.05 nd 1.95 1.48 1.79", "signal with controls": "0 of 18"}
{"CDR-L1": "KSSQSVLYESRNKNSVA", "CDR-L2": "WASKRES", "CDR-L3": "QQYHRLPLS", "log10 Kd, replicates": "nd 1.81 nd 2.13 4.01 nd", "signal with controls": "0 of 18"}
{"CDR-L1": "KTSQSVLYESRNSNSVA", "CDR-L2": "WASTRES", "CDR-L3": "QQYHRLPLS", "log10 Kd, replicates": "nd 0.88 0.83 3.30 1.52 1.78", "signal with controls": "0 of 18"}
{"CDR-L1": "KQSQSVLYENRNKNSVA", "CDR-L2": "WASTRES", "CDR-L3": "QQYHEWPLS", "log10 Kd, replicates": "nd 2.14 3.24 2.85 2.78 1.47", "signal with controls": "0 of 18"}
{"CDR-L1": "KSSQSVLYESRNKNSVA", "CDR-L2": "GASTREN", "CDR-L3": "QQYHRLPLS", "log10 Kd, replicates": "0.14 0.59 0.32 0.55 0.13 0.27", "signal with controls": "1 of 18 (2.34)"}
{"CDR-L1": "KLSQSVQWESRNGNSVA", "CDR-L2": "AASTRES", "CDR-L3": "QQYHRLPLS", "log10 Kd, replicates": "0.27 -0.07 0.12 -0.14 -0.07 0.24", "signal with controls": "2 of 18 (3.34)"}
{"CDR-L1": "KISQSVLAESRNKNSVA", "CDR-L2": "EASTRES", "CDR-L3": "QQPHRLPLS", "log10 Kd, replicates": "nd nd 1.67 nd nd nd", "signal with controls": "3 of 18 (1.94)"}
{"CDR-L1": "KSSQSVLYESDNKNNVA", "CDR-L2": "NASTRQS", "CDR-L3": "QQYHILPLS", "log10 Kd, replicates": "0.61 0.59 0.53 0.63 0.55 0.83", "signal with controls": "2 of 18 (3.25)"}
{"CDR-L1": "KSSQSVLYESRNCNSVA", "CDR-L2": "NASCRES", "CDR-L3": "QQYHRLPLN", "log10 Kd, replicates": "nd nd 1.12 1.33 2.01 nd", "signal with controls": "0 of 18"}
{"CDR-L1": "KSSCSVLYESRNKNSVA", "CDR-L2": "WASTRES", "CDR-L3": "QQYHRLPLS", "log10 Kd, replicates": "nd 3.19 2.02 2.55 nd nd", "signal with controls": "0 of 18"}
{"CDR-L1": "KSSQSVLYESRNKNSVA", "CDR-L2": "WVSTREM", "CDR-L3": "QQYHRLPFS", "log10 Kd, replicates": "nd nd nd nd nd nd", "signal with controls": "1 of 18 (1.91)"}
{"CDR-L1": "KSSQFVLYESRNKNSVA", "CDR-L2": "WASTRSS", "CDR-L3": "QQYHRLPLS", "log10 Kd, replicates": "nd nd nd nd nd nd", "signal with controls": "0 of 18"}
{"CDR-L1": "KSSQSVPFESRNKNSVA", "CDR-L2": "WASTRVS", "CDR-L3": "QQYHRLPLS", "log10 Kd, replicates": "nd nd 0.93 nd 1.85 1.13", "signal with controls": "0 of 18"}
{"CDR-L1": "KSSQSVLYESRNKNSVA", "CDR-L2": "KASTRES", "CDR-L3": "QQYERLPLS", "log10 Kd, replicates": "0.24 0.89 0.28 -0.20 0.92 0.25", "signal with controls": "0 of 18"}
{"CDR-L1": "KSSQSVTYESANKNSVA", "CDR-L2": "WANTRES", "CDR-L3": "QQYHRLPLD", "log10 Kd, replicates": "nd nd nd nd nd nd", "signal with controls": "1 of 18 (2.43)"}
{"CDR-L1": "KSSQSVLYESRNKNSVA", "CDR-L2": "DASCRES", "CDR-L3": "QQYHRLPLS", "log10 Kd, replicates": "0.38 0.44 0.22 0.12 0.23 0.52", "signal with controls": "1 of 18 (2.80)"}
{"CDR-L1": "MMSQSGIYESRNKNSVA", "CDR-L2": "WADTRES", "CDR-L3": "QQYHRLPLS", "log10 Kd, replicates": "1.18 nd nd 2.50 1.92 1.44", "signal with controls": "1 of 18 (2.58)"}

Empty control strains, which show no peptide, gave a signal in 4% of pairings with all light chain designs; the median was 2.64 and 95% of these signals were weaker than 1.59. No background was subtracted. The control count says in how many pairings with the empty strains this scFv gave a signal, with their mean in brackets.
The authors averaged sequences with at least three values out of six and counted those with two or fewer as poor binders.
Of ten entries with the parent sequence, four were seen in most replicates (averages 0.34 to 2.37), three in one and three in none, so single entries are noisy.

Source: Li et al. 2023 (doi:10.1038/s41467-023-39022-2), MIT Lincoln Laboratory and A-Alpha Bio; data file from the FLAb repository.